# Data: publication PMC3443740 (Journal of immunology (Baltimore, Md. : 1950), 2012)
# Legend:
# phospho Tyr705 STAT3 = details: BMDMs, 1 h pre-incubation, 100 ng/ml IL-10 30 min
# phospho-Y701 STAT1 = details: BMDMs, 500 Units/ml IFNβ 30 min
smiles,measurement,setting,value
N#CC[C@H](C1CCCC1)n1cc(-c2ncnc3[nH]ccc23)cn1 [Ruxolitinib],concentration required to completely inhibit IL-10 induced STAT3 phosphorylation,phospho Tyr705 STAT3,0.5 µM
same,concentration required to block IFNβ induced STAT1 phosphorylation compared with IL-10 induced STAT3 phosphorylation,phospho-Y701 STAT1,A similar concentration
